By UniProt entry, the sequences of proteins in these tests, tags left out. Residues count along the entry.
UniProt P50750, 19-315 limits assumed: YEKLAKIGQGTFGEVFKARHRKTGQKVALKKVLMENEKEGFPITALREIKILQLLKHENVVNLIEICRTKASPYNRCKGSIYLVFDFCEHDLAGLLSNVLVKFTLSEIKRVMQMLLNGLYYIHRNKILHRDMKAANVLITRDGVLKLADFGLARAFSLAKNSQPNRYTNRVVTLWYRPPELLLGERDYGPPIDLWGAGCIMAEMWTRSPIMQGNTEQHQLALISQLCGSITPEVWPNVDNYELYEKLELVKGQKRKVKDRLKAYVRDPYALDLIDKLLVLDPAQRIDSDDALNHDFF

In patent US9550792B2, “Polycyclic substituted pyrazole kinase activity inhibitors and use thereof” (priority 2013, dated 2017):

Target: CDK9/cyclin K (Homo sapiens, UniProt P50750)
Assay: Kinase IC50, 33P labeled isotope method
Assay type: biochemical

Q: `CN1CCN(Cc2ccc(NC(=O)c3n[nH]cc3Nc3ncnc4[nH]ccc34)cc2)CC1` [Compound I-11, 4-(4-(7H-pyrrolo[2,3-d]pyrimidinyl)amino)-N-(4-((4-methyl-1-piperazinyl)methyl)phenyl)-1H-3-pyrazolecarboxamide] was tested. Which IC50 did it give?
A: 35 nM
